## scFv variants of Ab-14 (light chain) against a SARS-CoV-2 spike peptide

The target is the same throughout: PDVDLGDISGINAS, from the HR2 region of SARS-CoV-2 spike.

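Designed CDR sequences, proposed from the first random library and measured here. Several design methods are mixed in this list. AlphaSeq pools MATa yeast showing the antibodies with MATalpha yeast showing the peptide. Pairs that bind mate more often; barcode pairs of the diploids are counted by sequencing. Scores were corrected for input abundance and mapped to Kd with protein pairs of known affinity run in the same pool. The assay was run in six technical replicates.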

Each scFv is VH, three GGGGS repeats, VL, as in the parent Ab-14, and differs from it in the CDRs of the light chain only.
VH: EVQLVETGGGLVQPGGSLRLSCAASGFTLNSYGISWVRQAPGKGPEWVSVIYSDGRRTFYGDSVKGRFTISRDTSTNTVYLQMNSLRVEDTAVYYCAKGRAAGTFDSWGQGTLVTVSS
VL: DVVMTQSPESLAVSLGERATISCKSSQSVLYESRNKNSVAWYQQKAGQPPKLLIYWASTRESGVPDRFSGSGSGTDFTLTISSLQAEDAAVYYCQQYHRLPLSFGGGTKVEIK

The whole VL of each variant is written out. Variants here have more than six changes. Values are apparent Kd, the geometric mean of the replicates that gave a signal; lower means stronger binding. "nd" marks a missing value. The strain was present, yet no cells mated with the target were sequenced in any replicate, which points to weak or no binding. Entries are sorted by rising average, undetected variants last.

Variant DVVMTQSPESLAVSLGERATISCKIDQWKLGESVNKNSVAWYQQKAGQPPKLLIYNASTRMDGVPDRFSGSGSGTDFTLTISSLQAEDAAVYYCQQYHRLPLSFGGGTKVEIK gave 540 pM (6 of 6 replicates). With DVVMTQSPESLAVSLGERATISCRFDMAMPYAHSNINSIAWYQQKAGQPPKLLIYDKAIQADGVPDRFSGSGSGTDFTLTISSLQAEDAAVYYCQQYNRLPLSFGGGTKVEIK the result was 760 pM (6 of 6 replicates). Variant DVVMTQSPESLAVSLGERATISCKLDGSCQYESRTKNSVAWYQQKAGQPPKLLIYDASTRESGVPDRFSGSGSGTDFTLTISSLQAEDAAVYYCQQYHRLPLSFGGGTKVEIK gave 820 pM (6 of 6 replicates). For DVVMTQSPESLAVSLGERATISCKLMGSMEYESRNKNAVAWYQQKAGQPPKLLIYEASHRESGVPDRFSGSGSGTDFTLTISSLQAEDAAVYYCQQYHRLPLSFGGGTKVEIK, the assay gave 880 pM (6 of 6 replicates). Variant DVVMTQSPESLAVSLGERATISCKLQQSVGYESRNQNAVAWYQQKAGQPPKLLIYQASTREEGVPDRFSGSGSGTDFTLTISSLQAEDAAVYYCQQYHRLPLSFGGGTKVEIK showed 920 pM (6 of 6 replicates). Variant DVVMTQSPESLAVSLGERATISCMISDATMYGSRNKNSVAWYQQKAGQPPKLLIYDLSTRGSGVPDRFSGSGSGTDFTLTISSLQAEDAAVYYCQQYHRLPLSFGGGTKVEIK gave 1.3 nM (6 of 6 replicates). With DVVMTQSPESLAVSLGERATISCKIGMTLNQLLQKKNNVAWYQQKAGQPPKLLIYDLVTRENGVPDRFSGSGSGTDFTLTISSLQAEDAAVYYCQQYHRLPLSFGGGTKVEIK the result was 1.8 nM (6 of 6 replicates). For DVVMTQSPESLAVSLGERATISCKLSMITGHMSMSRNNVAWYQQKAGQPPKLLIYEMVTRENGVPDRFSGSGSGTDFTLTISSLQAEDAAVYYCQQYERLPLSFGGGTKVEIK, the assay gave 2.3 nM (6 of 6 replicates).

For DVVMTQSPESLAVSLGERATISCKVSQSQLYEDGNSNSVAWYQQKAGQPPKLLIYNASVRESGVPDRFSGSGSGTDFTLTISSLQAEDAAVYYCQQYHRLPLSFGGGTKVEIK, the assay gave 2.7 nM (6 of 6 replicates). Variant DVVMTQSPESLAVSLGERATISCTISGVMQQMTHSKNNVAWYQQKAGQPPKLLIYEVSTRLEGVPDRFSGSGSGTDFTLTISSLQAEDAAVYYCQQYFRLPLEFGGGTKVEIK gave 2.9 nM (6 of 6 replicates). Variant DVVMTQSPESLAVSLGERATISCSLMQVGGYESNHKNSIAWYQQKAGQPPKLLIYDLRTRESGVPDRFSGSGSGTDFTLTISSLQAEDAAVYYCQQYHRLPLSFGGGTKVEIK showed 3.8 nM (6 of 6 replicates). With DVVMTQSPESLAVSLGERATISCKISYMGEHFSTNHSAIAWYQQKAGQPPKLLIYQASTRETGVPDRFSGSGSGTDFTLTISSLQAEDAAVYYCQQYHRLPISFGGGTKVEIK the result was 5.1 nM (6 of 6 replicates). Variant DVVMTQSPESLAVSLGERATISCALGTSTLEETRNKNSVAWYQQKAGQPPKLLIYEVSERESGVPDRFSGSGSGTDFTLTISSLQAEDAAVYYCQSYNRLPLSFGGGTKVEIK showed 6.4 nM (6 of 6 replicates). Variant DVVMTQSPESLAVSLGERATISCTLLYGVTEAAKPGKAIAWYQQKAGQPPKLLIYENEERAQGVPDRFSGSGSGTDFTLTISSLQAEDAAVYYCQQYFRLPLSFGGGTKVEIK gave 6.4 nM (6 of 6 replicates). For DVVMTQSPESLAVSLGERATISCTISSIMNHLTRNSNNVAWYQQKAGQPPKLLIYNMDMREAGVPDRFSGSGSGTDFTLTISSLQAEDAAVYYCQQYDRLPLSFGGGTKVEIK, the assay gave 7.2 nM (6 of 6 replicates). Variant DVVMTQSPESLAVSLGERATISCTISQMSTLFSQSINNVAWYQQKAGQPPKLLIYEVSTRLNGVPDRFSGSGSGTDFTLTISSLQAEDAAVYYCQQYDRLPLSFGGGTKVEIK showed 15 nM (6 of 6 replicates).

For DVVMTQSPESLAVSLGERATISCHFSVETMEFMGQNKNIAWYQQKAGQPPKLLIYEVTTTMLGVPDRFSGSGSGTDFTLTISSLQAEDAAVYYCQQYARLPFIFGGGTKVEIK, the assay gave 27 nM (5 of 6 replicates). With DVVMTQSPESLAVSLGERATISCKLHQSWLYLSRNHNAVAWYQQKAGQPPKLLIYHASQRCSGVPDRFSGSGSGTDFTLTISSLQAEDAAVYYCQQYHRLPLSFGGGTKVEIK the result was 34 nM (6 of 6 replicates). Variant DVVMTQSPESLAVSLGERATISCSLTVSDNYGSQLENNIAWYQQKAGQPPKLLIYQGVCKCEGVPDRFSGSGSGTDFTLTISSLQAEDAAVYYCQQYIRLPLIFGGGTKVEIK showed 37 nM (4 of 6 replicates). For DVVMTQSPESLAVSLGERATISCIVSQLMLWGVSAKNSIAWYQQKAGQPPKLLIYEAVTRLNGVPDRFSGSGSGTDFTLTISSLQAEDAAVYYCQQYDRLPLFFGGGTKVEIK, the assay gave 110 nM (1 of 6 replicates). For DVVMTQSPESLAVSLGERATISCTIYGTLSYGMRNRSNVAWYQQKAGQPPKLLIYEVSERLNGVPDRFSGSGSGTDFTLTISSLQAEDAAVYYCQQYDRLPLIFGGGTKVEIK, the assay gave 170 nM (6 of 6 replicates). With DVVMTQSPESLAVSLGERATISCKFSSAWSGEENNNNNIAWYQQKAGQPPKLLIYSADTLNHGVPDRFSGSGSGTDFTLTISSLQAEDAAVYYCQQYWTLPLSFGGGTKVEIK the result was 220 nM (1 of 6 replicates). Variant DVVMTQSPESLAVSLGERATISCKVSEFMRGLMGKKDSIAWYQQKAGQPPKLLIYDNVTRSNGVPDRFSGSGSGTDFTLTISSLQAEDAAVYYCQQYDRLPLSFGGGTKVEIK showed 1.1 µM (5 of 6 replicates). Variant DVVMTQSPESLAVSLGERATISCKLSMSMLMESRHKNNVAWYQQKAGQPPKLLIYENSTRESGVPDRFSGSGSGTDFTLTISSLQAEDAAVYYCQHYHRLPLSFGGGTKVEIK gave nd (0 of 6 replicates).

For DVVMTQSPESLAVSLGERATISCYIAENSDNLYQNTSSVAWYQQKAGQPPKLLIYETNQVRQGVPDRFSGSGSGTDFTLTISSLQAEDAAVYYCQQYHLLPLAFGGGTKVEIK, the assay gave nd (0 of 6 replicates). For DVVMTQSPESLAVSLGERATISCKQEISVLQESRNCNSVAWYQQKAGQPPKLLIYNASTREVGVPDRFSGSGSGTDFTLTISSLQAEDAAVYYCQQYHRLPLSFGGGTKVEIK, the assay gave nd (0 of 6 replicates).

The first 2 variants above that were never detected:

| VL | Kd | seen in |
|---|---|---|
| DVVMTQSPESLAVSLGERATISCKLSMSMLMESRHKNNVAWYQQKAGQPPKLLIYENSTRESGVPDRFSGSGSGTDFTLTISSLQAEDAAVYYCQHYHRLPLSFGGGTKVEIK | nd | 0/6 |
| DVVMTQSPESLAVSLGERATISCYIAENSDNLYQNTSSVAWYQQKAGQPPKLLIYETNQVRQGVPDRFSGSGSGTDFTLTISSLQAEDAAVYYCQQYHLLPLAFGGGTKVEIK | nd | 0/6 |

The authors averaged sequences with at least three values out of six and counted those with two or fewer as poor binders. The range of this assay differs from that of the first round, and the authors advise against merging the two. Empty control strains, which show no peptide, gave a signal in 4% of pairings with all light chain designs; the median was 430 nM and 95% of these signals were weaker than 38 nM. No background was subtracted.

Reference: Li et al. 2023, doi:10.1038/s41467-023-39022-2. File: FLAb, binding data.